{"sequences": {"note": "Chains of the proteins cited; added tags and fusions are not shown. Lines headed by an entry give the natural chain unless they say otherwise; changes in a name come on top.", "UniProt Q9BQF6": "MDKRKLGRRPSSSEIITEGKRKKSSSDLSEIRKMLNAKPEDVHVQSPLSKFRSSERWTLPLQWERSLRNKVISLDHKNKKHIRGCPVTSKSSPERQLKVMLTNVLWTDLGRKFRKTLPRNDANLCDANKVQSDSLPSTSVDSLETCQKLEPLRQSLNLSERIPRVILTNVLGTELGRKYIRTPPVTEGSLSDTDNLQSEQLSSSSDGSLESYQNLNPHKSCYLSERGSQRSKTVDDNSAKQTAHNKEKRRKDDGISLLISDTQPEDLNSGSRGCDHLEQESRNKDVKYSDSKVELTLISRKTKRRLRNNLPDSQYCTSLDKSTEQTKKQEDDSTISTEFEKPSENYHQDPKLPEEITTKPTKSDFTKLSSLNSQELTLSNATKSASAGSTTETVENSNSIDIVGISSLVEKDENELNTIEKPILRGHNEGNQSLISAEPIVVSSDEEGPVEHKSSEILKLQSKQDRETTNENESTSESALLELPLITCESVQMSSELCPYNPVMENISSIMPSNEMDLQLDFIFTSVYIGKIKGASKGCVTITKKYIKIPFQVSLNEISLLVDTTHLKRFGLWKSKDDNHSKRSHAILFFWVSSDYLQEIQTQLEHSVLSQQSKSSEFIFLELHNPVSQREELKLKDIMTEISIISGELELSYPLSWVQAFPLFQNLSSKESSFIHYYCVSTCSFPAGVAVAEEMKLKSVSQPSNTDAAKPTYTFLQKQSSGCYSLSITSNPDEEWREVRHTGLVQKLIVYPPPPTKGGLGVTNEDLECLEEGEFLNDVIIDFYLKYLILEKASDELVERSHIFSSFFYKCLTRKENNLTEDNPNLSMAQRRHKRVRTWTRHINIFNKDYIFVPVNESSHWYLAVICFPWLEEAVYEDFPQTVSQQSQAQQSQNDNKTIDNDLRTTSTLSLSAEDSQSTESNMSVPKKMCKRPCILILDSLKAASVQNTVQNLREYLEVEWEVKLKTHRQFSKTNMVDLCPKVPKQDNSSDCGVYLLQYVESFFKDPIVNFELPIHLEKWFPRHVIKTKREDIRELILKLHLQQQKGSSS"}, "source": "PubChem BioAssay AID434973", "about": "(Sanford-Burnham Center for Chemical Genomics, 2010)", "note": "The entries are a selection whose mix differs from that of the whole data set. Active and inactive are the calls of the source.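 The calls were made as follows: active = inhibition above about 50% at the single test dose (limit read from the data); inactive = the rest.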", "data": [{"molecular_target": "Sentrin-specific protease 7 (Homo sapiens) (UniProt Q9BQF6)", "assay": "blockers of human SENP7 peptidase activity – biochemical, luminescence, uHTS, primary screen (AID 434973);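 also: plate controls were DMSO with enzyme for no effect and no enzyme buffer wells for full effect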", "settings": "recombinant SENP7, Z-RLRGG-aminoluciferin luminescence, 40 min; at 5 µM; stronger effect = higher value", "values": [{"compound": "CN(C)C(=O)OCCc1n(C)cc[n+]1C", "inhibition": "inactive: 2.97%"}, {"compound": "CCN(/C(=N/P(=O)(N1CCOCC1)N1CCOCC1)N1CCOCC1)c1ccc(OC)cc1", "inhibition": "inactive: 3.25%"}, {"compound": "Nc1ccc([As](=O)(O)c2ccc(N)cc2)cc1", "inhibition": "inactive: 2.16%"}, {"compound": "C[N+]1=C2C=CC=CC=C2SC12C([N+](=O)[O-])=CC([N+](=O)[O-])=C[C-]2[N+](=O)[O-]", "note": "(centres undefined)", "inhibition": "inactive: -2.26%"}, {"compound": "Cc1ccc(NP(=O)(Oc2ccccc2)Oc2ccccc2)nc1", "inhibition": "inactive: -6.89%"}, {"compound": "O=[N+]([O-])c1cc([N+](=O)[O-])c(CCNc2ccccc2)c([N+](=O)[O-])c1", "inhibition": "inactive: 6.26%"}, {"compound": "CCc1nc2c(n1)c1c(non1O)c1c2no[n+]1[O-]", "inhibition": "inactive: 15.6%"}, {"compound": "CC(=O)N1C2C3N(C(C)=O)C1C1N(C(C)=O)C(C(N1C(C)=O)N3C(C)=O)N2C(C)=O", "inhibition": "inactive: 3.57%"}, {"compound": "O=[N+]([O-])c1cccc2n[nH]nc12", "inhibition": "inactive: -4.43%"}, {"compound": "COc1ccc(C2=NCC(CBr)S2)cc1", "note": "(centres undefined)", "inhibition": "inactive: 2.99%"}, {"compound": "c1nnnn1CCn1cnnn1", "inhibition": "inactive: -9.66%"}, {"compound": "O=P(Nc1nccs1)(c1ccccc1)c1ccccc1", "inhibition": "inactive: 3.24%"}, {"compound": "CC(C)C(=O)NC(Sc1ccccc1)C(Cl)(Cl)Cl", "note": "(centres undefined)", "inhibition": "inactive: -3.1%"}, {"compound": "O=C(OC1CN2CCC1CC2)c1cccc(Cl)c1", "note": "(centres undefined)", "inhibition": "inactive: 1.75%"}, {"compound": "Nc1ccc([As](=O)(O)c2ccc([N+](=O)[O-])cc2)cc1", "inhibition": "inactive: 5.76%"}, {"compound": "C(Cc1nn[nH]n1)Cc1nn[nH]n1", "inhibition": "inactive: -1.76%"}, {"compound": "O=[As](O)(c1ccccc1)c1ccc(O)cc1", "inhibition": "inactive: -6.53%"}, {"compound": "O=[N+]([O-])c1ncn(CCn2cnc([N+](=O)[O-])n2)n1", "inhibition": "inactive: 8.71%"}, {"compound": "O=P(Nc1nc2ccccc2s1)(c1ccccc1)c1ccccc1", "inhibition": "inactive: 3.36%"}, {"compound": "C[C@H]1OP(=O)(Oc2ccccc2)[C@H](O)[C@H](O)[C@H]1N=[N+]=[N-]", "note": "(some centres undefined)", "inhibition": "inactive: -15.2%"}, {"compound": "CN(C)C1(CNC(=O)c2ccc(Cl)c(S(N)(=O)=O)c2)CCCCC1", "inhibition": "inactive: 6.83%"}, {"compound": "O=P(Nc1ccccn1)(c1ccc(Br)cc1)c1ccc(Br)cc1", "inhibition": "inactive: -1.2%"}, {"compound": "Cc1ccccc1OP(=O)(Nc1ccccn1)Oc1ccccc1C", "inhibition": "inactive: 2.19%"}, {"compound": "CC(NC(=O)COC(=O)C(O)(c1ccccc1)c1ccccc1)c1ccccc1", "note": "(centres undefined)", "inhibition": "inactive: -8.48%"}, {"compound": "CN(C)C(=O)Oc1noc2ccccc12", "inhibition": "inactive: -1.89%"}, {"compound": "O=C(OC1CN2CCC1CC2)c1ccccc1", "note": "(centres undefined)", "inhibition": "inactive: -4.76%"}, {"compound": "CCC(=O)N1C2C3N(C(=O)CC)C1C1N(C(=O)CC)C(C(N1C(=O)CC)N3C(=O)CC)N2C(=O)CC", "inhibition": "inactive: 2.37%"}, {"compound": "COC(=O)c1cc2c(s1)N=C(c1ccccc1)N(C)P2(=O)N1CCOCC1", "note": "(centres undefined)", "inhibition": "inactive: 1.16%"}, {"compound": "Cc1ccc(OP(=O)(Nc2ccccn2)Oc2ccc(C)cc2)cc1", "inhibition": "inactive: -8.2%"}, {"compound": "CC(=O)NC(SC(=S)N(CC(C)C)CC(C)C)C(Cl)(Cl)Cl", "note": "(centres undefined)", "inhibition": "inactive: -3.08%"}, {"compound": "c1ccc(-c2nn[nH]n2)c(-c2nn[nH]n2)c1", "inhibition": "inactive: 2.71%"}, {"compound": "CCOC(=O)NC(Sc1ccccc1)C(Cl)(Cl)Cl", "note": "(centres undefined)", "inhibition": "inactive: 3.66%"}, {"compound": "Cc1ccc(NP(=O)(Oc2cccc(C)c2)Oc2cccc(C)c2)nc1", "inhibition": "inactive: -11.6%"}, {"compound": "O=C(NC1CCS(=O)(=O)C1)NP(=S)(Oc1ccccc1)Oc1ccccc1", "note": "(centres undefined)", "inhibition": "inactive: 6.42%"}, {"compound": "CCNC(=S)/N=C(\\N)N[N+](=O)[O-]", "inhibition": "inactive: -1.77%"}, {"compound": "CC(=O)Nc1ccc([As](=O)(O)O)c(O)c1", "inhibition": "inactive: -4.05%"}, {"compound": "CC(=O)Nc1ccc(Oc2c([N+](=O)[O-])cc([N+](=O)[O-])cc2[N+](=O)[O-])cc1", "inhibition": "inactive: -5.58%"}, {"compound": "Cc1ccccc1CN(C)C(=O)COC(=O)C(O)(c1ccccc1)c1ccccc1", "inhibition": "inactive: -11.9%"}, {"compound": "C[C@@H]1C=CCP(=O)(Oc2ccccc2)O1", "note": "(some centres undefined)", "inhibition": "inactive: -11.7%"}, {"compound": "C[C@H]1OP(=O)(Oc2ccccc2)C[C@@H]2O[C@@H]21", "note": "(some centres undefined)", "inhibition": "inactive: -4.48%"}, {"compound": "CC(=O)c1ccc(N2CC2c2ccncc2)cc1", "note": "(centres undefined)", "inhibition": "inactive: -4.08%"}, {"compound": "CC(C)(C)C(=O)NC(Sc1ccccc1)C(Cl)(Cl)Cl", "note": "(centres undefined)", "inhibition": "inactive: 3.33%"}, {"compound": "O=P1(Nc2nc3ccc(Cl)cc3s2)COc2ccccc2O1", "note": "(centres undefined)", "inhibition": "inactive: 4.5%"}, {"compound": "CCOc1ccc(C2=NCC(CBr)S2)cc1", "note": "(centres undefined)", "inhibition": "inactive: 2.37%"}]}]}
